Target: T1, Tau peptide encompassing residues 299-318 (human)
T1 construct: also called Tau protein (peptide)
T1 peptide: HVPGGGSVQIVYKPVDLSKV
Assay: isothermal titration calorimetry, peptide in cell titrated with IgG, PBS pH 7.4, one set of sites model

- Kd: 675 nM
B1: CBTAU-27.1 (antibody, V domains shown)
VH: QVQLVESGPEMRKPGESLKISCKTSGYIFSDYWTAWVRQLPGKGLQWMGIIYSGDSDTRYHPSVQGHVTMSTDSSLTTAYLQWSSLKASDTGIYYCARLDARVDAGWQLDSWGQGTLVTVSS
VL: DIQLTQSPDSLAVSLGERATINCKSSQSVFSRDNNKNYLAWYQHKSGQPPKLLFFWASSRESGVSDRFSGSGSGTDFTLTIDNLQAEDVALYYCQHYFNTPHNFGQGTKLEIK

From patent publication US20210122810A1 (Janssen / Centocor, published 2021)
